Values joined by “and” are separate entries in the source; they are usually repeats but may differ in a detail not shown here. Equal entries are not always repeated.
Tests used:
HIV antigen p24 = experiment: microbe, parasite or virus in culture; type: cell-based; details: for % Viral Activity, p24: h9 cells, 5760 min; for activity at 0.01 µg/mL / activity at 0.1 µg/mL / activity at 1 µg/mL / activity at 5 µg/mL: Human immunodeficiency virus 1, H9, 96 h, read-out: % Viral Activity, p24; for inhibition at 0.01 µg/mL / inhibition at 0.1 µg/mL / inhibition at 1 µg/mL / inhibition at 5 µg/mL: Human immunodeficiency virus 1, H9, read-out: % Inhibition, p24
HIV antigen p17 = experiment: microbe, parasite or virus in culture; type: cell-based; details: for activity at 0.01 µg/mL / activity at 0.1 µg/mL / activity at 1 µg/mL / activity at 5 µg/mL: Human immunodeficiency virus 1, H9, 96 h, read-out: % Viral Activity, p17; for inhibition at 0.01 µg/mL / inhibition at 0.1 µg/mL / inhibition at 1 µg/mL / inhibition at 5 µg/mL: Human immunodeficiency virus 1, H9, read-out: % Inhibition, p17
HIV virus = details: cited from earlier work
reverse transcriptase = experiment: microbe, parasite or virus in culture; type: cell-based, HIV; details: for activity at 0.01 µg/mL / activity at 0.1 µg/mL / activity at 1 µg/mL / activity at 5 µg/mL: Human immunodeficiency virus 1, H9, 96 h, read-out: % Viral Activity, RT; for inhibition at 0.01 µg/mL / inhibition at 0.1 µg/mL / inhibition at 1 µg/mL / inhibition at 5 µg/mL: Human immunodeficiency virus 1, H9, read-out: % Inhibition, RT
H9 cells = experiment: Survival/viability of HIV-infected H9 cells (trypan blue exclusion), % control; details: in vitro

C[C@@H]1[C@H](O)[C@@H](C)/C=C/C=C/CC/C=C/C=C/C=C/C=C/C(O[C@H]2O[C@H](C)[C@@H](O)[C@H](N)[C@@H]2O)CC2O[C@](O)(CC(O)C(O)CCC(O)CC(O)CC(O)CC(=O)O[C@H]1C)CC(O)C2C(=O)O (stereo partly shown) [Nystatin, reference compound]
% Viral Activity, p24 (HIV antigen p24): 21%
% Viral Activity, p17 (HIV antigen p17; h9 cells, 5760 min): 31%
usefulness in treatment of HIV infection (in words) (HIV virus): useful in the treatment of HIV infection

C[C@@H]1[C@H](O)[C@@H](C)/C=C/C=C/CC/C=C/C=C/C=C/C=C/[C@H](O[C@@H]2O[C@H](C)[C@@H](O)[C@H](N)[C@@H]2O)C[C@@H]2O[C@](O)(C[C@@H](O)C[C@@H](O)[C@H](O)CC[C@@H](O)C[C@@H](O)CC(=O)O[C@H]1C)C[C@H](O)[C@H]2C(=O)O [Amphotericin A, reference compound]
% Viral Activity, p24 (HIV antigen p24): 36%
usefulness in treatment of HIV infection (in words) (HIV virus): useful in the treatment of HIV infection
% Viral Activity, RT (reverse transcriptase; Table IV, conc. not printed (line between 10 and 0.1), added with HIV, 4 days): 78%

CCCCC[C@@H](O)[C@H]1C(=O)O[C@H](C)[C@@H](O)/C=C/C=C/C=C/C=C/C=C(\C)[C@@H](O)C[C@H](O)C[C@H](O)C[C@H](O)C[C@H](O)C[C@H](O)C[C@@H]1O [Filipin]
% Inhibition, p24 (HIV antigen p24): 0%

CC(C)C1OC(=O)/C=C/C=C/C=C/C=C/C=C/CC(O)C(C)C(O)CC(O)CC(O)CC(O)CC(O)CC(O)CC(O)/C=C/C1C (stereo not shown) [Mycoticin A, reference compound]
% Inhibition, p24 (HIV antigen p24): 23% and 25% and 37%
% Inhibition, p17 (HIV antigen p17): 16% and 26% and 28%

CCCCC[C@@H](O)[C@H]1C(=O)O[C@H](C)[C@@H](O)/C=C/C=C/C=C/C=C/C=C(\C)[C@@H](O)[C@H](O)[C@H](O)C[C@H](O)C[C@H](O)C[C@H](O)C[C@H](O)C[C@@H]1O [Lagosin]
% Inhibition, p17 (HIV antigen p17): 17%
% Inhibition, RT (reverse transcriptase): 0%

CCC(C)C1OC(=O)/C=C/C=C/C=C/C=C/C=C/C=C/CC(O)C(C)C(O)CC(O)CC(O)CC(O)CC(O)CC(O)CC(O)CC(O)/C=C/C1C (stereo not shown) [Dermostatin B]
activity at 0.01 µg/mL (HIV antigen p24): 100%
activity at 0.1 µg/mL (HIV antigen p24): 90%
activity at 1 µg/mL (HIV antigen p24): 4%
activity at 5 µg/mL (HIV antigen p24): 3%
inhibition at 0.01 µg/mL (HIV antigen p24): 0%
inhibition at 0.1 µg/mL (HIV antigen p24): 10%
inhibition at 1 µg/mL (HIV antigen p24): 96%
inhibition at 5 µg/mL (HIV antigen p24): 97%
viability of cells in the presence of HIV (in words) (H9 cells): cell viability remains high over the tested range
activity at 0.01 µg/mL (HIV antigen p17): 100%
activity at 0.1 µg/mL (HIV antigen p17): 80%
activity at 1 µg/mL (HIV antigen p17): 8%
activity at 5 µg/mL (HIV antigen p17): 4%
inhibition at 0.01 µg/mL (HIV antigen p17): 0%
inhibition at 0.1 µg/mL (HIV antigen p17): 20%
inhibition at 1 µg/mL (HIV antigen p17): 92%
inhibition at 5 µg/mL (HIV antigen p17): 96%
activity at 0.01 µg/mL (reverse transcriptase): 100%
activity at 0.1 µg/mL (reverse transcriptase): 92%
activity at 1 µg/mL (reverse transcriptase): 25%
activity at 5 µg/mL (reverse transcriptase): 13%
inhibition at 0.01 µg/mL (reverse transcriptase): 0%
inhibition at 0.1 µg/mL (reverse transcriptase): 8%
inhibition at 1 µg/mL (reverse transcriptase): 75%
inhibition at 5 µg/mL (reverse transcriptase): 87%

CC(C)C1OC(=O)/C=C/C=C/C=C/C=C/C=C/C=C/CC(O)C(C)C(O)CC(O)CC(O)CC(O)CC(O)CC(O)CC(O)CC(O)/C=C/C1C (stereo not shown) [Dermostatin A]
activity at 0.01 µg/mL (HIV antigen p24): 100%
activity at 0.1 µg/mL (HIV antigen p24): 100%
activity at 1 µg/mL (HIV antigen p24): 3%
activity at 5 µg/mL (HIV antigen p24): 3%
inhibition at 0.01 µg/mL (HIV antigen p24): 0%
inhibition at 0.1 µg/mL (HIV antigen p24): 0%
inhibition at 1 µg/mL (HIV antigen p24): 97%
inhibition at 5 µg/mL (HIV antigen p24): 97%
viability of cells in the presence of HIV (in words) (H9 cells): cell viability remains high over the tested range
activity at 0.01 µg/mL (HIV antigen p17): 100%
activity at 0.1 µg/mL (HIV antigen p17): 100%
activity at 1 µg/mL (HIV antigen p17): 4%
activity at 5 µg/mL (HIV antigen p17): 4%
inhibition at 0.01 µg/mL (HIV antigen p17): 0%
inhibition at 0.1 µg/mL (HIV antigen p17): 0%
inhibition at 1 µg/mL (HIV antigen p17): 96%
inhibition at 5 µg/mL (HIV antigen p17): 96%
activity at 0.01 µg/mL (reverse transcriptase): 100%
activity at 0.1 µg/mL (reverse transcriptase): 80%
activity at 1 µg/mL (reverse transcriptase): 21%
activity at 5 µg/mL (reverse transcriptase): 9%
inhibition at 0.01 µg/mL (reverse transcriptase): 0%
inhibition at 0.1 µg/mL (reverse transcriptase): 20%
inhibition at 1 µg/mL (reverse transcriptase): 79%
inhibition at 5 µg/mL (reverse transcriptase): 91%

Reference: patent publication US5159002A, “Method for purifying dermostatin A and dermostatin B” (Xechem Inc., priority 1990, dated 1992)
